{"source": "patent US10688087B2", "about": "“Pharmaceutical compositions and therapeutic methods employing a combination of a manganese complex compound and a non-manganese complex form of the compound” (PLEDPHARMA AB, priority 2009, dated 2020)", "origin": "cited, not measured here", "conditions": "rats, 50 mg/kg body weight i.p. once daily for 1 or 4 days; cited from earlier work", "data": [{"substance": "manganese (II) chloride", "values": [{"measurement": "increase in manganese level, cerebellum", "result": "≤ 427", "unit": "%"}, {"measurement": "increase in manganese level, cerebral cortex", "result": "up to 232%"}, {"measurement": "increase in manganese level, globus pallidus", "result": "≤ 523", "unit": "%"}]}]}
